Results from patent US8916540B2, “Antibiotic compositions and related screening methods” (Academia Sinica, priority 2008, dated 2014).

Amino acid sequences for entries named in this document (tags omitted). A change or cut given only in a name is not applied to a line headed by its entry.
UniProt P02919: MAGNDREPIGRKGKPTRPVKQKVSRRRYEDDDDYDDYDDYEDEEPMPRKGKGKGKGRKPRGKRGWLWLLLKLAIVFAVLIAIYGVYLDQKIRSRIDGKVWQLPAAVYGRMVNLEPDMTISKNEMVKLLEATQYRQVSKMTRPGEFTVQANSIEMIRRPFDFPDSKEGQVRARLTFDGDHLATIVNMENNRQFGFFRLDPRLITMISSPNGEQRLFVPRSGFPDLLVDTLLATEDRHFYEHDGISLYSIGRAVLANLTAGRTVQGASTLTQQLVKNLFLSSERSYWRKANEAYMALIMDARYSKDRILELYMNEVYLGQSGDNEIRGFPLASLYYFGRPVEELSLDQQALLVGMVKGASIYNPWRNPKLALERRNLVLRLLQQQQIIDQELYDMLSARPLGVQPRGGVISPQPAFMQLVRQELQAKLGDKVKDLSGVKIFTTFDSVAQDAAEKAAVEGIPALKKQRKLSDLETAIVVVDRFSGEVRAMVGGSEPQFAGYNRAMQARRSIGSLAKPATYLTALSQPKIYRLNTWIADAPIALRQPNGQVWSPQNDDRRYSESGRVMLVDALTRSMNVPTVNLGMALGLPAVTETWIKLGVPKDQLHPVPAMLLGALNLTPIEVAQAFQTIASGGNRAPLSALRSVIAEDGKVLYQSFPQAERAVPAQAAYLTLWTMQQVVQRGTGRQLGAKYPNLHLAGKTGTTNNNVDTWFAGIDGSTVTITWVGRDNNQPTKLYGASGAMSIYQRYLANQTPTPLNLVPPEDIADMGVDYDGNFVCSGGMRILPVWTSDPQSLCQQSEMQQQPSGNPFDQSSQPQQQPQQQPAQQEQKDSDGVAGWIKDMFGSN

Legend:
[1] = molecular target: PBP1b from Escherichia coli (Escherichia coli, UniProt P02919); assay type: binding; settings: read-out: steady-state affinity (KD) by SPR; full-length E. coli PBP1b immobilized, 1:1 interaction model
[2] = molecular target: T1, PBP1b from Klebsiella pneumoniae (Klebsiella pneumoniae, UniProt A0ACD7TXF1); assay: SPR moenomycin binding to immobilized full-length PBP; settings: read-out: SPR_KD, steady-state affinity, average values
T1 sequence (A0ACD7TXF1 1-850): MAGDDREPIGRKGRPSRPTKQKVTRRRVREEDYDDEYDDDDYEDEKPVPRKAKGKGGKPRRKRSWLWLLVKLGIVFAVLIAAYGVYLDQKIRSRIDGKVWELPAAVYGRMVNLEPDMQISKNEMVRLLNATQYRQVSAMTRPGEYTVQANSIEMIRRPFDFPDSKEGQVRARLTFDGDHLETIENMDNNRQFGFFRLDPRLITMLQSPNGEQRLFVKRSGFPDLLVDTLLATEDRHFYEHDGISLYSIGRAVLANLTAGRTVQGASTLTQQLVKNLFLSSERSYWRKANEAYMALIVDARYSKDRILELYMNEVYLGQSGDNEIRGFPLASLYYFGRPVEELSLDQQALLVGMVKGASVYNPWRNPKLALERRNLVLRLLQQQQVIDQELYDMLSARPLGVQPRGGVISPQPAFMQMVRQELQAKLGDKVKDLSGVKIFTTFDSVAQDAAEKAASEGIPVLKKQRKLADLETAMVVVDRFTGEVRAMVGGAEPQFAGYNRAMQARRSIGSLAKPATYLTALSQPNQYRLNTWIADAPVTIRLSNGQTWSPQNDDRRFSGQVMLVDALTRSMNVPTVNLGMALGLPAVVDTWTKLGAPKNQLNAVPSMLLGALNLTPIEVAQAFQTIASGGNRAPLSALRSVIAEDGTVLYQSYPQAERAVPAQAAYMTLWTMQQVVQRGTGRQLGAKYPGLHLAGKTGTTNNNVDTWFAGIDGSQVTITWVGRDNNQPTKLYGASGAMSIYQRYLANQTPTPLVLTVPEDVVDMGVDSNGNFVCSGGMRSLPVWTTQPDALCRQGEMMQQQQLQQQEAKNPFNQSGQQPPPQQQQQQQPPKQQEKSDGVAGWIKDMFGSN

Substance Moenomycin A [Compound 1] has a Kd [1] of 440 nM and a Kd [2] of 819 nM.
